The test relates to modified PQQGDH. The experiment in a line: Substrate specificity using glucose assay system (ferricyanide reduction, absorbance 420 nm). It counts as biochemical. Particulars: glutaric acid buffer pH 7.0, reagent 1%. As to the method:
D-glucose+ferricyanide ion+PQQGDH D-glucono-1,5-lactone+ferrocyanide ion
Specificity to each substrate can be determined by changing D-glucose to other saccharides. The presence of the ferrocyanide ion produced by reduction of the ferricyanide ion was confirmed by measuring the decrease of absorbance at a wavelength of 420 nm by spectrophotometry.
A. […]
B. Potassium ferricyanide solution: 50 mM (0.165 g potassium ferricyanide (molecular weight: 329.25) dissolved in 10 ml of distilled water)
C. PQQGDH solution: 31000 U/ml (approx. 128 mg PQQGDH (Toyobo: GLD-331) dissolved in 5 ml of distilled water)
D. Substrate solution (D-glucose solution or maltose solution): 100 or 400 mM
• 1. […] The reduction in the absorbance relative to water at 420 nm was recorded for 1 to 3 minutes with a spectrophotometer while maintaining at a temperature of 37° C., and the ΔOD per minute was calculated from the initial linear portion of the curve (ΔOD test). […]
Variation in absorbance per unit time was determined by calculating ΔOD/min(ΔOD test−ΔOD blank)
To evaluate whether activity had declined with respect to sugars other than glucose, the ΔOD/min (a) with D-glucose as the substrate solution and the ΔOD/min (b) with the other sugar in place of D-glucose as the substrate solution were measured, and the relative value ((b)/(a)×100) was calculated given 100 as the measurement value with glucose as the substrate. […]

In the case of `O=C(O)CCC(=O)C(=O)O.[Na]` [Sodium α-ketoglutaric acid], the Maltose/glucose ratio reads like this: (substrate 4.8 mM, control 0.86) 0.64; (substrate 19.2 mM, control 0.94) 0.90.

These data come from US7381540B2, “Composition for measuring glucose having improved substrate specificity” (Toyo Boseki Kabushiki Kaisha, priority 2005, dated 2008).
